# Patent US20240299446A1, “COMPOSITION FOR PREVENTING, TREATING OR IMPROVING CALCIUM RELATED DEGENERATIVE DISEASES, OSTEOPOROSIS OR CANCERS COMPRISING SIGMA ANTI-BONDING MOLECULE CALCIUM GLUCONATE” (priority 2023, published 2024)
# System: ovariectomy (OVX) rats
# Test: Blood biochemical analysis in ovariectomized rats
# Details: serum at 12 weeks post-surgery; mean ± SD, 5 rats
substance,measurement,value
Sigma Anti-bonding Molecule Calcium gluconate [SAC gluconate],TC,63.0 ± 15.3 mg/dL
same,TG,18.6 ± 6.7 mg/dL
same,TP,4.9 ± 0.2
